# In paper PMC12164071, “Lysine targeting covalent inhibitors of malarial kinase PfCLK3” (RSC Medicinal Chemistry, 2025):
# Amino acid sequences for entries named in this document (tags omitted).
# UniProt P49760, whole entry: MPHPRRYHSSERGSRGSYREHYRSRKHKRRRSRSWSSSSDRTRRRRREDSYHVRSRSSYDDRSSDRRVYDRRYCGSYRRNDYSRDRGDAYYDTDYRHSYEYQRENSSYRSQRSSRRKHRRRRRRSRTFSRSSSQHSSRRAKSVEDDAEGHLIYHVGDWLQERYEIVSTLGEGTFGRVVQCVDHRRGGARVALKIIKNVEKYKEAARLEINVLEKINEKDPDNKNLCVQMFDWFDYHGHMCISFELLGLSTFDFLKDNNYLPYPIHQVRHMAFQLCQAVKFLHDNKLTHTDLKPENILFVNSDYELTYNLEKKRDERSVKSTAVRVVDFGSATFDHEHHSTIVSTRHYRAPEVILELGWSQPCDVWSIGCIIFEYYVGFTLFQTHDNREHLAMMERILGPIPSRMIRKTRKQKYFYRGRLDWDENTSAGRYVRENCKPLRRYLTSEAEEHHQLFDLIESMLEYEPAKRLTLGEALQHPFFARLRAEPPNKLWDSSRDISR
# Molecular target: human (h)CLK2 (Homo sapiens, UniProt P49760)
# Assay: Selectivity kinase assay against hCLK2
# Conditions: errors SD, N ≥ 3
smiles,measurement,setting,value
CCN(CC)Cc1ccc(OC)c(-c2cnc3[nH]cc(-c4ccc(C(=O)O)c(C(C)C)c4)c3c2)c1,pIC50 (hCLK2),,6.46 ± 0.15
same,IC50,read-out: IC50 (hCLK2),344 nM
